Ki data for 1 compound are collected here from ChEMBL document CHEMBL3045250 (Med Chem Res, 2005).

The chains behind the UniProt entries cited, without tags or fusion partners.
UniProt P50406, whole entry: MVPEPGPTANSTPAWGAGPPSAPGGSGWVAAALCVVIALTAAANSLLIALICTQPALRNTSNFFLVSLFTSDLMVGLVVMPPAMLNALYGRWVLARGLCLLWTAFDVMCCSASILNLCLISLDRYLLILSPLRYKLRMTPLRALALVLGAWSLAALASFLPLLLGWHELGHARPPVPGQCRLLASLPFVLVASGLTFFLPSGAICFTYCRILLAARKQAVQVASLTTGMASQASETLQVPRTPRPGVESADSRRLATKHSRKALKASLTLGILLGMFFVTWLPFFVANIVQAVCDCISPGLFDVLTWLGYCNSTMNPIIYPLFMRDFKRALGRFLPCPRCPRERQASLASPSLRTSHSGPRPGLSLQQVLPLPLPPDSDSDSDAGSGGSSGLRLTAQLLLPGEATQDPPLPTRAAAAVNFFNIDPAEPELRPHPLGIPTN

The assay deals with 5-hydroxytryptamine receptor 6 (Homo sapiens, UniProt P50406). In words: Binding affinity to Homo sapiens (human) 5-HT6 receptor.

One may read the Ki as a dissociation constant, usually derived from enzyme kinetics or from competition with a known ligand. A higher Ki goes with weaker binding. `COc1ccc2[nH]cc(CCN(C)C)c2c1` [MEBUFOTENIN]: the inhibition constant Ki worked out at 70 nM.
